System: progranulin (PGRN) secretion, BV-2 cells
Experiment: PGRN assay: progranulin induction cellular assay (ELISA of secreted mouse PGRN)
Type: cell-based
Details: Table C, secreted mouse PGRN in cell culture medium

## O=C(O[C@@H]1CN2CCC1CC2)C(=O)N1CCc2ccccc2[C@@H]1c1ccc(F)cc1
  EC50: > 10 µM

Reference: patent US20220251084A1, “PROGRANULIN MODULATORS AND METHODS OF USING THE SAME” (ARKUDA THERAPEUTICS, priority 2019, published 2022)
